# Test results: publication PMC6010140, “Design, synthesis and docking study of novel coumarin ligands as potential selective acetylcholinesterase inhibitors” (Journal of Enzyme Inhibition and Medicinal Chemistry, 2017)
# System: hepatoma cell H4IIE cells
# Conditions: 24 h, 0.07–2.5 µM
structure (smiles),measurement,value
"CCN(CC)CC(=O)Nc1nc(-c2cc3ccccc3oc2=O)cs1 [Compound 6c, 2-(Diethylamino)-N-(4-(2-oxo-2H-chromen-3-yl)thiazol-2-yl)acetamide]",H4IIE hepatoma cell toxicity (in words),negligible cell death and was non-toxic; also recorded: negligible cell death

# “Also recorded” adds a separate entry of the source.
